Data reported in article PMC6017698 (Molecules : A Journal of Synthetic Chemistry and Natural …, 2018).

Chains of the proteins cited; added tags and fusions are not shown. Residues count along the entry.
UniProt P06276, 29-602: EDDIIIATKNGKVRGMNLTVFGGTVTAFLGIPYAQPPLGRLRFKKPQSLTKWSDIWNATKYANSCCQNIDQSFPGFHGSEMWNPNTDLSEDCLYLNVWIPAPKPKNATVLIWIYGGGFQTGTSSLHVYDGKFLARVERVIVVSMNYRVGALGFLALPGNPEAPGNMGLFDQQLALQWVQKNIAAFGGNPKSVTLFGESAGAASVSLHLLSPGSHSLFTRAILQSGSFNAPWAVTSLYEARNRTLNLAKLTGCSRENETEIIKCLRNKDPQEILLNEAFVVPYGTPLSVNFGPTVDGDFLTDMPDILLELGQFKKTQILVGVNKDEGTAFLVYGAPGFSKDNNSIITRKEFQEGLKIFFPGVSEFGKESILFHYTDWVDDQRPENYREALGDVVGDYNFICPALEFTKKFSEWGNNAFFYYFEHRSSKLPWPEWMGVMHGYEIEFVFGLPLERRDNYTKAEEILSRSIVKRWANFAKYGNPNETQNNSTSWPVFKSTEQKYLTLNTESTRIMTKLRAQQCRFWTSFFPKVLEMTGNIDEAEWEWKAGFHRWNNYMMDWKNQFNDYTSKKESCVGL

Biological target: human serum BChE (Homo sapiens, UniProt P06276)
Type: biochemical
Settings: mean ± SEM of at least three experiments, each in duplicate, read-out: hBChE IC50

## CC1=CC2Cc3nc4cc(Cl)ccc4c(N)c3C(C1)C2 (stereo not shown) [huprine Y, reference compound]
  IC50: 180 ± 10 nM
